# TDP1 inh = blocks human tyrosyl-DNA phosphodiesterase 1. Q9NUW8. recombinant TDP1, AlphaScreen DNA substrate cleavage. Potency, µM (series often up to 130 µM), without a hit: top-dose activity change, negative = inhibition, actives largely listed as inhibitors. 350,000 tested, 0.28% active. AID 485290; also: potency is read from the fitted curve at half-maximal effect; % is scaled to controls: 0 for no effect and ±100 for the full control effect; nearly all actives have a fitted effect of over 40% in size
#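 E. coli-derived human Tdp1, 1 nM final. Cpd preinc 15 min RT; substrate 15 nM final, 5 min RT; AS bead mix 10 ug/ml final, 10 min RT. Signal loss = tyrosine-FITC cleavage. No-enzyme wells = max signal.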
# DT40 TDP1 CPT = growth inhibition of DT40 Tdp1-/-;hTDP1 cells with camptothecin (screen for TDP1 inhibitors). chicken DT40 Tdp1-/-;hTDP1 cells + 20 nM CPT, ATP luminescence, 48 h. 420,000 tested, 12% active. Potency, µM (top dose mostly 46.2 µM), without a hit: at the top dose activity change, negative = growth inhibition, usual class: inhibitors; also: potency is read from the fitted curve at half-maximal effect; % is scaled to controls: 0 for no effect and ±100 for the full control effect; nearly all actives have a fitted effect of over 55% in size
#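 Cell growth measured by CellTiter-Glo luminescence after a minimum 48 h, 37 C compound exposure with 20 nM CPT in Tdp1-knockout DT40 cells stably expressing hTDP1, seeded 400/well; qHTS titration format.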
# uPA surface inh = inhibitors of cell surface uPA generation; cell surface uPA generation assay, qHTS; Potency, µM (series often up to 38.3 µM), for the others: at the top dose activity change, negative = inhibition, actives largely listed as inhibitors; 330,000 tested, 0.31% active; active = well fitted inhibition curve with a large enough effect; inconclusive = small, poorly fitted or top-dose-only effect; inactive = no such curve, though single readings can be large or run the other way; tested in mouse RAW 264.7 cells; also: potency is read from the fitted curve at half-maximal effect; % is scaled to controls: 0 for no effect and ±100 for the full control effect; nearly all actives have a fitted effect of over 55% in size
# miR-21 reporter = miR-21 reporter, rising signal | HeLa miR-21 FLuc reporter, luciferase, 48 h | Potency, µM (top dose mostly 38.3 µM), inactives show at the highest dose reporter change, positive = more light | 340,000 tested, under 10 active | AID 2288; active = well fitted rising curve with a large enough effect; inconclusive = small, poorly fitted or top-dose-only effect; inactive = no such curve, though single readings can be large or run the other way;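 note: % of control where 0% means no effect; miR-21 action dims this reporter so a rising signal means less miR-21 action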
#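 HeLa miR-21-FLuc reporter line, endogenous miR-21; 2000 cells/well in DMEM/10% FBS; compound titration up to ~40uM final, 48 h, 37 degree Celsius; luciferase detection reagent, 15 min lysis, CCD luminescence.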
# TDP1 cell noCPT = qHTS for Inhibitors of human tyrosyl-DNA phosphodiesterase 1 (TDP1): qHTS in cells in absence of CPT; AID 686978, 2013; DT40 Tdp1-/- hTDP1 cells, no CPT, ATP luminescence, 48 h; Potency, µM (series often up to 46.2 µM), for the others: at the highest dose activity change, negative = growth inhibition, usual class: inhibitors; 420,000 tested, 15% active; also: potency is read from the fitted curve at half-maximal effect; % is scaled to controls: 0 for no effect and ±100 for the full control effect; nearly all actives have a fitted effect of over 55% in size
#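 Chicken DT40 Tdp1-/- cells complemented with human TDP1, screened without camptothecin (DMSO vehicle only), 400 cells/well. Compounds pin-transferred, cells incubated at 37 °C for at least 48 hr. Growth read as ATP-dependent luminescence (CellTiter-Glo, 30 min at RT).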
# Starred values were filed as active, the others as inactive; ? = inconclusive; . = no result given; ! = not confirmed by another sample; [ ] = remark or other dose. In the library only some 16% were active in any assay of this set; here they are far more common. Unless noted, calls follow the shape of the dose curve; as a rule, active = well fitted curve in the direction sought with a large enough effect; inconclusive = small, poorly fitted or top-dose-only effect, or another doubt; inactive = no such curve, though single readings can be large; an effect the other way counts as inactive or inconclusive.
entry | molecule | TDP1 inh | miR-21 reporter | uPA surface inh
1 | COc1ccc(S(=O)(=O)N2CCCCCC2)cc1N(C)S(=O)(=O)c1ccccc1 | 0.0% | 14.5% | -5.4%
2 | COc1ccccc1N(C)S(=O)(=O)c1ccc(C)c(C(=O)N2CCCCCC2)c1 | -10.2% | . | -0.3%
3 | COc1cccc(NS(=O)(=O)c2ccc(C)c(C(=O)N3CCCCC3)c2)c1 | 3.6%[56.1 µM] | 11.4% | -3.7%
4 | COc1ccccc1N(Cc1ccccc1)S(=O)(=O)c1cccc(C(=O)Nc2ccc(C(C)=O)cc2)c1 | 4.7% | -39.0% | -4.6%
5 | COc1ccc(OC)c(NC(=O)c2cccc(S(=O)(=O)N(Cc3ccccc3)c3ccccc3OC)c2)c1 | 4.7% | -7.9% | 7.6%
6 | COc1ccc(CC(=O)Nc2cc(S(=O)(=O)N3CCCC3)ccc2Cl)c(OC)c1 | -0.3% | . | -5.3%
7 | CC(=NNC(N)=S)c1ccc2cc3c(cc2c1)OCO3 | . | . | .
8 | C/C(=N\NC(N)=S)c1ccc2c(c1)OCCO2 | 1.3% | -20.2% | -2.3%
9 | COc1cc2ccc(C(C)=NNC(N)=S)cc2cc1OC | . | . | .
10 | Cc1nn(C)c(C(=O)N/N=C/c2cc3c(cc2Br)OCO3)c1Br | 5.1% | -1.9% | -0.6%
11 | Cc1nonc1C(=O)N/N=C/c1cc2c(cc1Br)OCO2 | 0.0% | -0.6% | 10.0%
12 | O=C(CCc1ccccc1)N/N=C\c1cc2c(cc1Br)OCO2 | 3.7%[56.1 µM] | 0.4% | -0.3%

entry | DT40 TDP1 CPT | TDP1 cell noCPT
1 | ? | 23.1µM*
2 | 7.31µM* | 7.31µM*
3 | ? | -13.4%
4 | -5.4% | ?
5 | 6.51µM* | ?
6 | ? | ?
7 | 23.1µM* | 10.3µM*
8 | -23.4% | ?
9 | ? | 14.6µM*
10 | ? | 18.4µM*
11 | -23.5% | 14.4%
12 | ? | ?

# (next part)
entry | molecule | TDP1 inh | miR-21 reporter | uPA surface inh
13 | O=C(CSCc1ccccc1)N/N=C/c1cc2c(cc1Br)OCO2 | 5.5% | -7.3% | -1.6%
14 | CCCCCCCCCC[N+](C)(C)CC/C=C1/c2ccccc2Sc2ccc(Cl)cc21 | . | ? | -12.3%
15 | CN(CC/C=C1/c2ccccc2CSc2ccccc21)CCCO | 0.0% | 12.9% | -5.8%
16 | CC[N+](C)(C)CC/C=C1/c2ccccc2Sc2ccc(Cl)cc21 | 2.7% | 12.4% | 5.9%
17 | CCCCCCCCCCC[N+](C)(C)CC/C=C1/c2ccccc2Sc2ccc(Cl)cc21 | . | ? | -10.8%
18 | COc1cccc(NC(=O)Cn2cc(C=O)c3ccccc32)c1 | . | 11.7% | -1.2%
19 | CCc1cccc(NC(=O)Cn2cc(C=O)c3ccccc32)c1 | 1.2% | 14.9% | -29.6%
20 | O=C(CNc1ccc2c(c1)OCO2)N/N=C\c1cn(Cc2ccccc2)c2ccccc12 | 10.8% | -3.1% | 1.9%
21 | Cc1ccc(NC(=O)Cn2cc(C=O)c3ccccc32)cc1 | . | 14.8% | 5.5%
22 | O=Cc1cn(CC(=O)Nc2ccc3c(c2)OCO3)c2ccccc12 | -2.6% | 9.9% | 3.8%
23 | O=C(CNc1ccc2c(c1)OCO2)N/N=C\c1cn(Cc2ccc(F)cc2)c2ccccc12 | 8.0% | 17.0% | .
24 | Cc1cc(NC(=O)CSc2nnc(COc3ccccc3)o2)no1 | 7.7% | -5.9% | 1.2%

entry | DT40 TDP1 CPT | TDP1 cell noCPT
13 | -73.9% | 18.4µM*
14 | 5.17µM* | 3.66µM*
15 | ? | ?
16 | 7.1% | -6.2%
17 | 5.8µM* | 2.59µM*
18 | 16.4µM* | 25.9µM*
19 | 9.2µM* | 10.3µM*
20 | 18.4µM* | 23.1µM*
21 | ? | -24.4%
22 | ? | 16.4µM*
23 | . | .
24 | -7.6% | -2.1%

# Reprinted from the part before: 4 entries, then new ones.
entry | molecule | TDP1 inh | miR-21 reporter | uPA surface inh
21 | Cc1ccc(NC(=O)Cn2cc(C=O)c3ccccc32)cc1 | . | 14.8% | 5.5%
22 | O=Cc1cn(CC(=O)Nc2ccc3c(c2)OCO3)c2ccccc12 | -2.6% | 9.9% | 3.8%
23 | O=C(CNc1ccc2c(c1)OCO2)N/N=C\c1cn(Cc2ccc(F)cc2)c2ccccc12 | 8.0% | 17.0% | .
24 | Cc1cc(NC(=O)CSc2nnc(COc3ccccc3)o2)no1 | 7.7% | -5.9% | 1.2%
25 | Cn1cccc1Cc1nnc(SCC(=O)NCc2ccccc2)n1-c1ccc(F)cc1 | 9.2% | 2.5% | 5.1%
26 | Cn1cccc1Cc1nnc(SCC(=O)NCc2ccc(F)cc2)n1-c1ccc(F)cc1 | 5.2% | -1.2% | 3.6%
27 | COc1ccc(Cl)cc1NC(=O)CSc1nnc(Cc2cccn2C)n1-c1ccc(F)cc1 | . | -0.7% | 5.6%
28 | Cn1cccc1Cc1nnc(SCC(=O)Nc2ccc(F)cc2F)n1-c1ccc(F)cc1 | 8.7% | -5.1% | 3.7%
29 | CC(=O)NCCC(=O)Nc1nc2c(ccc3ccccc32)s1 | -8.3% | -20.5% | 2.3%
30 | CCN(CC)CCOc1ccc(/C(=C(\Cl)c2ccccc2)c2ccccc2)cc1 | 13.6%[56.1 µM] | . | 12.8%
31 | CC/C(=C(/c1ccccc1)c1ccc(OCCN(C)C)cc1)c1ccccc1 | 14.3% | . | .
32 | CCOc1ccc(N(CC)S(=O)(=O)N2CCCC(C(=O)Nc3ccc(NC(C)=O)cc3)C2)cc1 (stereo unspecified) | 2.6% | 4.5% | .
33 | CCN(c1ccc(OC)cc1)S(=O)(=O)N1CCCC(C(=O)NCc2ccc(OC(C)C)cc2)C1 (stereo unspecified) | . | . | .
34 | CCOc1ccc(N(CC)S(=O)(=O)N2CCCC(C(=O)NCc3ccccc3OCC)C2)cc1 (stereo unspecified) | 7.7% | 29.2% | .
35 | CCc1ccc(CNC(=O)C2CCCN(S(=O)(=O)N(CC)c3ccccc3)C2)cc1 (stereo unspecified) | -0.1% | 5.8% | 1.3%
36 | CCOc1ccc(N(CC)S(=O)(=O)N2CCCC(C(=O)NCCc3ccccc3OC)C2)cc1 (stereo unspecified) | 7.7% | 19.4% | .

entry | DT40 TDP1 CPT | TDP1 cell noCPT
21 | ? | -24.4%
22 | ? | 16.4µM*
23 | . | .
24 | -7.6% | -2.1%
25 | 16.4µM* | ?
26 | ? | -25.4%
27 | 25.9µM* | ?
28 | ? | ?
29 | 5.1% | -5.1%
30 | ? | 14.6µM*!
31 | . | .
32 | ? | ?
33 | 20.6µM* | 14.6µM*
34 | ? | 16.4µM*
35 | ? | ?
36 | 20.6µM* | ?

# Further compounds.
entry | molecule | TDP1 inh | miR-21 reporter | uPA surface inh
37 | Cn1c(CNC(=O)CCNC(=O)c2ccccc2)cc(=O)n(C)c1=O | 9.0% | 0.3% | -6.9%
38 | Cc1nc2ccccc2n1CCc1nc2c3ccccc3nc(SCC(=O)Nc3ccc(C(C)C)cc3)n2n1 | 1.5% | 14.9% | .
39 | O=C(CSc1nc2ccccc2c2nc(-c3ccccc3)nn12)Nc1ccc(F)cc1 | 9.3% | -0.8% | .
40 | CCC(Sc1nc2ccccc2c2nc(CCn3c(C)nc4ccccc43)nn12)C(=O)Nc1ccc(F)cc1 (stereo unspecified) | -0.5% | -2.2% | .
41 | Cc1nc2ccccc2n1CCc1nc2c3ccccc3nc(SCC(=O)Nc3ccc(Br)cc3F)n2n1 | 6.4% | -4.0% | .
42 | Cc1nc2ccccc2n1CCc1nc2c3ccccc3nc(SCC(=O)Nc3cccc(C(F)(F)F)c3)n2n1 | -2.5% | 16.2% | .
43 | Cc1ccc(NC(=O)CSc2nc3ccccc3c3nc(CCn4c(C)nc5ccccc54)nn23)cc1F | 7.4% | 1.1% | .
44 | CCCn1c(-c2ccncc2)n[nH]c1=S | . | 5.3% | 2.2%
45 | CNc1cncc(-c2ccoc2)n1 | . | . | .
46 | O=C(Nc1cc(Cl)ccc1Cl)c1ccco1 | . | -5.0% | -3.2%
47 | CS/C(Nc1cc(Cl)ccc1Cl)=C(/C#N)C(=O)c1ccco1 | 3.8% | 7.4% | -11.5%
48 | CN(Cc1ccccc1)c1nc(-c2cccc([N+](=O)[O-])c2)nc2ccccc12 | 4.2% | -1.2% | -5.1%

entry | DT40 TDP1 CPT | TDP1 cell noCPT
37 | -1.0% | 1.4%
38 | 11.6µM* | 9.2µM*
39 | ? | 14.6µM*
40 | ? | 2.31µM*
41 | ? | ?
42 | ? | ?
43 | 8.2µM* | 9.2µM*
44 | 0.5% | -0.5%
45 | ? | -24.5%
46 | 4.1% | -5.4%
47 | 9.2µM* | 16.4µM*
48 | 18.4µM* | 18.4µM*

# Source: PubChem (National Center for Advancing Translational Sciences (NCATS))
